Literature values as cited in article PMC5766608, “Target engagement imaging of PARP inhibitors in small-cell lung cancer” (Nature Communications, 2018).

Sequences of proteins named here, by UniProt entry; tags and fusion partners are left off. A change or cut given only in a name is not applied to a line headed by its entry.
UniProt Q9UGN5: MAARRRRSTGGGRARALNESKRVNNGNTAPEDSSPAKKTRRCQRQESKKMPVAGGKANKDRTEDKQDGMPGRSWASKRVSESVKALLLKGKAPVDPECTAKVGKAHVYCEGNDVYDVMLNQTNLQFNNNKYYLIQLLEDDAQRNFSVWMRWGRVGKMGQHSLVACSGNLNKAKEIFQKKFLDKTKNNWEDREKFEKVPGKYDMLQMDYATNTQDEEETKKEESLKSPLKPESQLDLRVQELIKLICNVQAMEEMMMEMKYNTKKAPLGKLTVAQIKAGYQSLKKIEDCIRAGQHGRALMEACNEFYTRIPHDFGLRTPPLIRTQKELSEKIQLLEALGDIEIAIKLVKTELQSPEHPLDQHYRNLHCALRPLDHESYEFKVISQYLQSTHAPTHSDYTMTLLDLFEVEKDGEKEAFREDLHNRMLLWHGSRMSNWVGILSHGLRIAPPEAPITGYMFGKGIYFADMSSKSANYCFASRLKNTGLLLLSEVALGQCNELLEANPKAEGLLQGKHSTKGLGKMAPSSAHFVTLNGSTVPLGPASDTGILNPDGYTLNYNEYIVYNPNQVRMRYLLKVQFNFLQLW

Target: T1, PARP2 (Homo sapiens, UniProt Q9UGN5)
T1 construct: purchased BPS Bioscience, San Diego, CA
Details: cited from earlier work

O=C(COc1cccc2c(=O)[nH]ccc12)c1ccccc1 [UPF1069]
IC50: 0.3 ± 0.1 µM
